Measurements published in patent publication US11850306B2, “Method for drying hydrogel comprising nanofibrillar cellulose and a dried hydrogel comprising nanofibrillar cellulose” (UPM-KYMMENE CORPORATION, priority 2016, dated 2023).

Columns and labels:
[1] = In vitro release studies: diffusion coefficients of model compounds from NFC hydrogels; type: physicochemical; details: for Diffusion coefficients for model compounds in different NFC hydrogels: no excipients; for Diffusion coefficient in NFC-hydrogels: pH 7.4, 37° C.
[2] = cited from earlier work

Diffusion coefficients for model compounds in different NFC hydrogels ([1]; 3% NFC): 59.44 10^−8 cm^2/s
Diffusion rate through 3% NFC hydrogel relative to 6.5% NFC hydrogel (times faster) ([1]; 3% vs 6.5% NFC hydrogel): 1.5 times
Diffusion coefficients for model compounds in different NFC hydrogels ([1]; 6.5% NFC): 40.01 10^−8 cm^2/s
Diffusion coefficient in NFC-hydrogels ([1]; NFC hydrogel 11804-3 (3.2%)): 59.44 10^−8 cm^2/s
Diffusion coefficient in NFC-hydrogels ([1]; NFC hydrogel 11814-1 (5.7%)): 40.03 10^−8 cm^2/s
Diffusion coefficient in NFC-hydrogels ([1]; NFC hydrogel 11814-3 (5.7%)): 47.52 10^−8 cm^2/s
Diffusion coefficient in NFC-hydrogels ([1]; NFC hydrogel 11815-3 (6.8%)): 40.01 10^−8 cm^2/s
Substance: FITC-dextran
Charge at pH 7.0 ([2]; pH 7.0): ø
Charge of compounds at pH 7.4 ([2]; pH 7.4): dextran (ø)
